This note sets out measurements from US9278960B2, “Quinoline carboxamide and quinoline carbonitrile derivatives as mGluR2-negative allosteric modulators, compositions, and their use” (Merck Sharp & Dohme Corp., priority 2011, dated 2016).

Protein sequences, listed by entry. Tags and fused reporters are not part of them. Residues count along the entry.
UniProt Q14416, 19-872: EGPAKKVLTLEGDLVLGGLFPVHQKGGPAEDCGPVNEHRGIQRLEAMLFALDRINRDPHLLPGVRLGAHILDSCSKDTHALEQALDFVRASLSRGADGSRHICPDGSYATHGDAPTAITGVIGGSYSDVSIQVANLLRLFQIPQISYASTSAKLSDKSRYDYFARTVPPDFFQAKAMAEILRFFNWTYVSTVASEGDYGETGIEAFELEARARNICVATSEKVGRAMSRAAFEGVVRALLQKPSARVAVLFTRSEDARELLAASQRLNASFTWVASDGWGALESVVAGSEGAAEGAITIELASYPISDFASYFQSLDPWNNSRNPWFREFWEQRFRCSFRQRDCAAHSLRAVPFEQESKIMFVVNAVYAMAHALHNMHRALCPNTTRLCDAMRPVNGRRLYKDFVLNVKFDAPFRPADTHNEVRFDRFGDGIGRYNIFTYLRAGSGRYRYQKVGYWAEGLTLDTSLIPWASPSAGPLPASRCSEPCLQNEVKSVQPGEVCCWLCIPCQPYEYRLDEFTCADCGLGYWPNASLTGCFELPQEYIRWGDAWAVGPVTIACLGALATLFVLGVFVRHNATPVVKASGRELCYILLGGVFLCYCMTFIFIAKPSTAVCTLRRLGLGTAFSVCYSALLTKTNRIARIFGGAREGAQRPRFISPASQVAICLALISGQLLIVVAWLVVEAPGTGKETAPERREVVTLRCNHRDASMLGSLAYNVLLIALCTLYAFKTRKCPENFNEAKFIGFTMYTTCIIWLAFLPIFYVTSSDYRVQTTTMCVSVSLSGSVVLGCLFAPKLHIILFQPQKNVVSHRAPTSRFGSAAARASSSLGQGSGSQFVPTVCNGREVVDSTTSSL

Each structure is given as a SMILES string.

In this experiment the target is human mGluR2 (Homo sapiens (Human), UniProt Q14416). The experiment can be described thus: FLIPR Ca2+ mobilization antagonist assay in CHO dhfr- cells expressing recombinant human mGluR2 and Gα16. It is filed as cell-based. The following applies: antagonist response after addition of 2,500 nM glutamate, Fluo-4 AM, FLIPR384.

Take `Cc1ccc2c(-c3ccccc3Cl)cc(C(N)=O)nc2c1` [Example 1-27, 4-(2-chlorophenyl)-7-methylquinoline-2-carboxamide]: the IC50 amounted to 377 nM.

For `Cc1ccc(CC(O)c2ccc3c(-c4ccc(F)cc4)cc(C(N)=O)nc3c2)cn1` (centres unmarked) [Example 8-21, 4-(4-fluorophenyl)-7-[1-hydroxy-2-(6-methylpyridin-3-yl)ethyl]quinoline-2-carboxamide], the IC50 came out at 19 nM.

Take `COc1ccc(-c2cc(C(N)=O)nc3cc(C(O)Cc4ccc(Cl)nc4)ccc23)cc1` (centres unmarked) [Example 8-27, 7-[2-(6-chloropyridin-3-yl)-1-hydroxyethyl]-4-(4-methoxyphenyl) quinoline-2-carboxamide]: the IC50 was 11 nM.

As for `Cn1cc(-c2cc(C(N)=O)nc3cc(CN4C[C@H](C(F)(F)F)OCC4(C)C)ccc23)cn1` [Example 4-96, 7-{[(2R)-5,5-dimethyl-2-(trifluoromethyl)morpholin-4-yl]methyl}-4-(1-methyl-1H-pyrazol-4-yl)quinoline-2-carboxamide], the concentration for half-maximal inhibition (IC50) was 8 nM.

Regarding `COc1cc(F)c(-c2cc(C(N)=O)nc3cc(CCc4cnc(C)nc4)ccc23)c(F)c1` [Example 8-51, 4-(2,6-difluoro-4-methoxyphenyl)-7-[2-(2-methylpyrimidin-5-yl)ethyl]quinoline-2-carboxamide], the IC50 was 5 nM.

On to `CC1(C)OC(=O)N(Cc2ccc3c(-c4ccc(F)cc4)cc(C(N)=O)nc3c2)C1=O` [Example 2-11, 7-[(5,5-dimethyl-2,4-dioxo-1,3-oxazolidin-3-yl)methyl]-4-(4-fluorophenyl)quinoline-2-carboxamide], for which the IC50 turned out to be 25 nM.

For `NC(=O)c1cc(-c2ccc(F)cc2)c2ccc(Cn3c(C4CCC4)nc4ccccc43)cc2n1` [Example 3-40, 7-[(2-cyclobutyl-1H-benzimidazol-1-yl)methyl]-4-(4-fluorophenyl)quin-oline-2-carboxamide], the IC50 is 81 nM.

For the compound `Cc1ccc(-c2cc(C(N)=O)nc3cc(CN4C(=O)CCC4=O)ccc23)cc1` [Example 2-29, 7-[(2,5-dioxopyrrolidin-1-yl)methyl]-4-(4-methylphenyl)quinoline-2-carboxamide], the IC50 stood at 5 nM.

In the case of `Cc1nn(C)c(C)c1-c1cc(C(N)=O)nc2cc(CN3C[C@@H](C)O[C@@H](C(F)(F)F)C3)ccc12` [Example 4-134, 7-{[(2R,6R)-2-methyl-6-(trifluoromethyl)morpholin-4-yl]methyl}-4-(1,3,5-trimethyl-1H-pyrazol-4-yl)quinoline-2-carboxamide], the IC50 was 86 nM.

On to `NC(=O)c1cc(-c2cnc(C3CC3)s2)c2ccc(CN3CCOC(C(F)(F)F)C3)cc2n1` (centres unmarked) [Example 4-76, 4-(2-cyclopropyl-1,3-thiazol-5-yl)-7-{[2-(trifluoromethyl)morpholin-4-yl]methyl}quinoline-2-carboxamide], for which the 50% inhibitory concentration (IC50) is 261 nM.

Take `NC(=O)c1cc(-c2ccc(F)cc2)c2ccc(Cn3c(-c4ccccn4)nc4ccccc43)cc2n1` [Example 3-36, 4-(4-fluorophenyl)-7-[(2-pyridin-2-yl-1H-benzimidazol-1-yl)methyl]quinoline-2-carboxamide]: the IC50 is 189 nM.

Regarding `Cc1cc(-c2cc(C(N)=O)nc3cc(CN4C[C@@H](C)O[C@@H](C(F)(F)F)C4)ccc23)sn1` [Example 4-126, 4-(3-methylisothiazol-5-yl)-7-{[(2R,6R)-2-methyl-6-(trifluoromethyl)morpholin-4-yl]methyl}quinoline-2-carboxamide], the concentration for half-maximal inhibition (IC50) turned out to be 13 nM.

`CCOC(=O)c1cn(Cc2ccc3c(-c4ccc(F)cc4)cc(C(N)=O)nc3c2)nc1C(F)(F)F` [Example 3-22, ethyl 1-{[2-carbamoyl-4-(4-fluorophenyl)quin-olin-7-yl]methyl}-3-(trifluoromethyl)-1H-pyrazole-4-carboxylate]: the IC50 came out at 47 nM.

With `Cn1cc(-c2cc(C(N)=O)nc3cc(CN4CCO[C@@H](C(F)(F)F)C4)ccc23)cn1` [Example 4-54, 4-(1-methyl-1H-pyrazol-4-yl)-7-{[(2R)-2-(trifluoromethyl)morpholin-4-yl]methyl}quinoline-2-carboxamide], the half-inhibitory concentration (IC50) turned out to be 12 nM.

`COc1c(F)cc(-c2cc(C(N)=O)nc3cc(CCc4cnc(C)nc4)ccc23)cc1F` [Example 8-54, 4-(3,5-difluoro-4-methoxyphenyl)-7-[2-(2-methylpyrimidin-5-yl)ethyl]quinoline-2-carboxamide]: the IC50 stood at 11 nM.

On to `CC[C@](O)(c1cn(Cc2ccc3c(-c4cccnc4F)cc(C(N)=O)nc3c2)nn1)C(F)(F)F` [Example 3-19, 4-(2-fluoropyridin-3-yl)-7-({4-[(1S)-1-hydroxy-1-(trifluoromethyl)propyl]-1H-1,2,3-triazol-1-yl}methyl)quinoline-2-carboxamide], for which the IC50 is 112 nM.

As to `NC(=O)c1cc(-c2ccc(F)cc2)c2ccc(CN3CCN4CCC[C@@H]4C3)cc2n1` [Example 4-105, 4-(4-fluorophenyl)-7-[(8aR)-hexahydropyrrolo [1,2-a]pyrazin-2(1H)-ylmethyl]quinoline-2-carboxamide], the 50% inhibitory concentration (IC50) is 172 nM.

Regarding `CCN1CCN(Cc2ccc3c(-c4ccc(F)cc4)cc(C(N)=O)nc3c2)CC1C(F)(F)F` (centres unmarked) [Example 4-93, 7-{[4-ethyl-3-(trifluoromethyl)piperazin-1-yl]methyl}-4-(4-fluorophenyl)quino-line-2-carboxamide], the IC50 amounted to 66 nM.

For the compound `NC(=O)c1cc(-c2ccc(F)cc2)c2ccc(Cn3cnc4ncccc43)cc2n1` [Example 3-34, 4-(4-fluorophenyl)-7-(1H-imidazo[4,5-b]pyridin-1-ylmethyl)quinoline-2-carboxamide], the concentration for half-maximal inhibition (IC50) amounted to 55 nM.

On to `C[C@H]1COCCN1Cc1ccc2c(-c3cnn(C)c3)cc(C(N)=O)nc2c1` [Example 4-59, 7-{[(3S)-3-methylmorpholin-4-yl]methyl}-4-(1-methyl-1H-pyrazol-4-yl)quinoline-2-carboxamide], for which the IC50 was determined as 394 nM.

Take `NC(=O)c1cc(-c2cnn(C3CC3)c2)c2ccc(CN3CCOC(C(F)(F)F)C3)cc2n1` (centres unmarked) [Example 4-82, 4-(1-cyclopropyl-1H-pyrazol-4-yl)-7-{[2-(trifluoromethyl)morpholin-4-yl]methyl}quinoline-2-carboxamide]: the IC50 turned out to be 188 nM.

In the case of `Cn1cc(-c2cc(C(N)=O)nc3cc(Cc4cccc(C(F)(F)F)n4)ccc23)cn1` [Example 6-23, 4-(1-methyl-1H-pyrazol-4-yl)-7-{[6-(trifluoromethyl)pyridin-2-yl]methyl} quinoline-2-carboxamide], the IC50 amounted to 28 nM.

For the compound `COc1ccc(-c2cc(C(N)=O)nc3cc(C(C)Cc4cccnc4)ccc23)cc1` (centres unmarked) [Example 8-41, 4-(4-methoxyphenyl)-7-(1-methyl-2-pyridin-3-ylethyl)quinoline-2-carboxamide], the half-inhibitory concentration (IC50) amounted to 5 nM.

`COc1ccc(-c2cc(C(N)=O)nc3cc(C(C)Cc4ccc(CF)nc4)ccc23)cc1` (centres unmarked) [Example 8-46, 7-{2-[6-(fluoromethyl)pyridin-3-yl]-1-methylethyl}-4-(4-methoxyphenyl) quinoline-2-carboxamide]: the 50% inhibitory concentration (IC50) was determined as 10 nM.

As to `CN1CCN(Cc2ccc3c(-c4ccc(F)cc4)cc(C(N)=O)nc3c2)CC1C(F)(F)F` (centres unmarked) [Example 4-94, 4-(4-fluorophenyl)-7-{[4-methyl-3-(trifluoromethyl)piperazin-1-yl]methyl}quinoline-2-carboxamide], the IC50 came to 63 nM.

As to `NC(=O)c1cc(-c2ccc(F)cc2)c2ccc(C(O)Cc3ccc(Cl)nc3)cc2n1` (single isomer, unassigned) [Example 8-2, 7-[2-(6-Chloropyridin-3-yl)-1(R or S)-hydroxyethyl]-4-(4-fluorophenyl)quinoline-2-carboxamide], the IC50 was found to be 15 nM.

For `COc1ccc(-c2cc(C(N)=O)nc3cc(C(C)Cc4cnc(C)nc4)ccc23)c(F)c1` (single isomer, unassigned) [Example 8-11, 4-(2-Fluoro-4-methoxyphenyl)-7-[1-(2-methylpyrimidin-5-yl)propan-2(R or S)-yl]quinoline-2-carboxamide], the IC50 stood at 6 nM.

For the compound `Cn1cc(-c2cc(C(N)=O)nc3cc(CN4CCSC(C5CC5)C4)ccc23)cn1` (centres unmarked) [Example 4-16, 7-((2-cyclopropylthiomorpholino)methyl)-4-(1-methyl-1H-pyrazol-4-yl)quinoline-2-carboxamide], the half-maximal inhibitory concentration (IC50) was determined as 13 nM.

Take `COc1nccc(Cc2ccc3c(-c4ccc(F)cc4)cc(C(N)=O)nc3c2)c1Cl` [Example 6-8, 7-[(3-chloro-2-methoxypyridin-4-yl)methyl]-4-(4-fluorophenyl) quinoline-2-carboxamide]: the IC50 stood at 56 nM.

Consider `NC(=O)c1cc(-c2ccc(F)cc2)c2ccc(CN3CCCC(C(F)(F)F)C3)cc2n1` (centres unmarked) [Example 4-124, 4-(4-fluorophenyl)-7-{[3-(trifluoromethyl)piperidin-1-yl]methyl}quinoline-2-carboxamide], for which the IC50 is 48 nM.

As for `Cn1cc(-c2cc(C(N)=O)nc3cc(Cc4ccc(F)c(C(F)(F)F)c4)ccc23)cn1` [Example 6-18, 7-[4-fluoro-3-(trifluoromethyl)benzyl]-4-(1-methyl-1H-pyrazol-4-yl)quinoline-2-carboxamide], the IC50 was 35 nM.

For `NC(=O)c1cc(-c2ccc(F)cc2)c2ccc(CN3CCC(O)(O)CC3)cc2n1` [Example 4-41, 7-[(4,4-dihydroxypiperidin-1-yl)methyl]-4-(4-fluorophenyl)quino-line-2-carboxamide], the 50% inhibitory concentration (IC50) came to 118 nM.

As to `COc1ccc(-c2cc(C(N)=O)nc3cc(C(C)Cc4cccnc4N)ccc23)c(F)c1` (centres unmarked) [Example 8-38, 7-[2-(2-aminopyridin-3-yl)-1-methylethyl]-4-(2-fluoro-4-methoxyphenyl) quinoline-2-carboxamide], the half-inhibitory concentration (IC50) was 33 nM.

With `Cc1c(-c2cc(C(N)=O)nc3ccccc23)cnn1-c1ccccc1` [Example 1-14, 4-(5-methyl-1-phenyl-1H-pyrazol-4-yl)quinoline-2-carboxamide], the half-maximal inhibitory concentration (IC50) was found to be 667 nM.

Take `Cc1ccc(CC(C)c2ccc3c(-c4ccc(F)cc4)cc(C(N)=O)nc3c2)cn1` (centres unmarked) [Example 8-26, 4-(4-fluorophenyl)-7-[1-methyl-2-(6-methylpyridin-3-yl)ethyl]quinoline-2-carboxamide]: the IC50 was 19 nM.
